# scFv variants of Ab-91 (heavy chain) against a SARS-CoV-2 spike peptide

Values reported by Engelhart et al. 2022, doi:10.1038/s41597-022-01779-4 (FLAb copy).

Target peptide (SARS-CoV-2 spike, HR2 region): PDVDLGDISGINAS

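The starting antibody came from a phage panning campaign against this peptide. Variants in AAYL51 differ from the parent at up to three CDR positions; double and triple changes were sampled at random. The assay is AlphaSeq: two haploid yeast populations carry antibody and antigen on their surface. Mating (16 h, 30 °C) was followed by selection of diploids and sequencing of their barcodes. Each replicate has its own calibration line, from reference interactions of the BCL2 family. The assay was run in three technical replicates.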

The variants keep the light chain, the linker and the frameworks of Ab-91 (scFv order VL, the linker GGGGSGGGGSGGGGS, VH).
VL: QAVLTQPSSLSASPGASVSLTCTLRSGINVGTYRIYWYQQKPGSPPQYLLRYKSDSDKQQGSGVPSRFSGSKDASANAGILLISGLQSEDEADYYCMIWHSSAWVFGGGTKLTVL
VH: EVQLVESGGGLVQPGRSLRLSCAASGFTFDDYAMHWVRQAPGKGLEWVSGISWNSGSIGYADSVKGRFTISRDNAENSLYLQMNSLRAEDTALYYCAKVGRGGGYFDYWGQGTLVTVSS

The parent's heavy chain CDRs are GFTFDDYAMH, GISWNSGSIGYADSVK, VGRGGGYFDY; each variant's own CDRs replace them letter for letter. Affinities are written as log10 Kd with Kd in nM; a lower number is a better binder. A mean of the replicates is given; it leaves out those without a signal. An entry "nd" has no value in the source: the pair was not observed among the diploids in any replicate. This suggests poor binding but is not conclusive. Empty control strains, which show no peptide, gave a signal in 21% of pairings with library AAYL51; the median was 4.54 and 95% of these signals were weaker than 3.26. No background was subtracted.

Result 3.35 (3 of 3 replicates), variant GFTFCDYAMH | GISWNSGSIGYADYVT | VGRGGGYFDY.
Result 2.29 (3 of 3 replicates), variant GFTFDDTGMH | GISWNSGSDGYADSVK | VGRGGGYFDY.
Result nd (0 of 3 replicates), variant GFTFDDYALH | GISWNSGSIGYADSVK | WGRGGGYFDY.
Result 5.07 (3 of 3 replicates), variant GFTSDDYMMH | GISWNSGVIGYADSVK | VGRGGGYFDY.
Result 4.83 (3 of 3 replicates), variant GFTFDQYAMH | GISWNSGSIKYADSVK | VGRGNGYFDY.
Result nd (0 of 3 replicates), variant GFTFDDYAMH | GISWNPGSMGYADSVK | VRRGGGYFDY.
Result nd (0 of 3 replicates), variant GFTFDDYAMH | GIQWNSQSIGYAASVK | VGRGGGYFDY.
Result 4.55 (1 of 3 replicates), variant GFTFDDNAMH | GISWNSGSIGYADSVK | VGRGAGYFDY.
Result 2.29 (2 of 3 replicates), variant GFTFDDYAMK | GISWNSGSMGYMDSVK | VGRGGGYFDY.
Result nd (0 of 3 replicates), variant GFTFDDYRMH | GISWSSGSIGYADSIK | VGRGGGYFDY.
Result nd (0 of 3 replicates), variant GFTFDDYAMH | GISWLSGSIGYADSVK | VFRGGGYFDY.
Result 3.44 (2 of 3 replicates), variant GFTFADYAMH | GISPNSGSIGYADSVK | VGRGGNYFDY.
Result 4.40 (2 of 3 replicates), variant GFTFDDYAMH | GISFWSGSIGYADNVK | VGRGGGYFDY.
Result nd (0 of 3 replicates), variant GFTFDDYVMH | GIDWNSGSIGYADRVK | VGRGGGYFDY.
Result nd (0 of 3 replicates), variant GFTFDDYAMH | GISWNSGSIGYADWVK | VLRGHGYFDY.
Result nd (0 of 3 replicates), variant GFNFDDYAMH | GISNNSGSIGYADSVK | VGRGGGYFRY.
Result 5.92 (3 of 3 replicates), variant GFTFDDYAMH | GISKNSGSIGYADSVK | VGRGGMYFDY.
Result 4.68 (1 of 3 replicates), variant GFTKDDWAMH | GISWNSGSIGYADSYK | VGRGGGYFDY.
Result nd (0 of 3 replicates), variant GFEFDDYAMH | GISWNSGSIGYADSVK | VGRGGGYTDC.
Result nd (0 of 3 replicates), variant GFPFDDYAMH | GISWNSCLIGYADSVK | VGRGGGYFDY.
Result 4.00 (1 of 3 replicates), variant GNTFDDYAMH | GISWNSGAIGYADSVK | VGRGGGYFEY.
Result 3.66 (3 of 3 replicates), variant GFTFDDYAMH | GISWNSSSIGYDDSVK | VCRGGGYFDY.
Result 3.07 (1 of 3 replicates), variant GFKFDDYAMH | GISWNSGKIGYADSVK | VGRGGGVFDY.
Result 5.46 (2 of 3 replicates), variant GYTFDDYAMH | GISWNSGSIGYADSVK | VCRGGGYFDS.
Result 4.74 (2 of 3 replicates), variant GFTFDDYAMA | GISWNSNSIGMADSVK | VGRGGGYFDY.
Result 5.73 (1 of 3 replicates), variant GFTFRDYAMH | GISWNLGSIGYADSVK | VPRGGGYFDY.
Result 4.81 (3 of 3 replicates), variant GFTFDDYVMH | GTSWNSGSIGYADSVK | VGRGTGYFDY.
Result 5.68 (2 of 3 replicates), variant GFTFDDYAMH | GWSWNSNSIGYADSVK | VGRIGGYFDY.
Result 4.91 (2 of 3 replicates), variant GFCFDDYAMH | GISWNSGSIGYADFVK | VGEGGGYFDY.
Result nd (0 of 3 replicates), variant GFTFDDYACH | FISWNEGSIGYADSVK | VGRGGGYFDY.
Result nd (0 of 3 replicates), variant GFTNDDYAMH | GISWNSASRGYADSVK | VGRGGGYFDY.
Result 4.76 (1 of 3 replicates), variant GFTFDDYAMH | GRSWNSGSIGYNDSVK | VGRGGGYYDY.
Result 2.80 (2 of 3 replicates), variant GFTFDDYAMH | GISWNSGSIGYADSVK | VGRNGGYFDI.
Result 5.76 (2 of 3 replicates), variant GFTFDDYARH | QISWNFGSIGYADSVK | VGRGGGYFDY.
Result 3.94 (1 of 3 replicates), variant MFTFDDYAML | GISWNSGSIGYADSVK | VGRGGGYLDY.

Repeated from above, the 3 best binders with a signal in all replicates:

| CDR-H1 | CDR-H2 | CDR-H3 | log10 Kd (nM), mean | replicates with signal |
|---|---|---|---|---|
| GFTFDDTGMH | GISWNSGSDGYADSVK | VGRGGGYFDY | 2.29 | 3 of 3 |
| GFTFCDYAMH | GISWNSGSIGYADYVT | VGRGGGYFDY | 3.35 | 3 of 3 |
| GFTFDDYAMH | GISWNSSSIGYDDSVK | VCRGGGYFDY | 3.66 | 3 of 3 |